# Where two headings read alike, the source gives them in different places.
# System: C. elegans
# Experiment: microbe, parasite or virus in culture
# Conditions: Caenorhabditis elegans
# [1] = 0 h, read-out: Percentage of motility inhibition 0 h
# [2] = 24 h, read-out: Percentage of motility inhibition 24 h
SMILES,inhibition at 110 µM [1],inhibition at 110 µM [2]
C=C1CCC[C@]2(C)C=C3OC(=O)C(C)=C3C[C@@H]12 [Atractylenolide I],0%,3%
COc1cc(O)c2c(=O)c(O)c(-c3ccc(O)cc3)oc2c1 [Rhamnocitrin],6%,23%
C[C@@H](O)[C@H]1C(=O)N2C(C(=O)OCOC(=O)C(C)(C)C)=C(SC3CN(C4=NCCS4)C3)[C@H](C)[C@H]12 [Tebipenem pivoxil],55%,37%

# Reference: PMC11855827, “High-Throughput Screening of Five Compound Libraries for Anthelmintic Activity and Toxicity Leads to the Discovery of Two Flavonoid Compounds” (International Journal of Molecular Sciences, 2025)
